Results reported in US10765741B2, “Methods for treating VEGF-expressing cancer using preformed nanoparticle complexes comprising albumin-bound paclitaxel and bevacizumab” (Mayo Foundation for Medical Education and Research, priority 2011, dated 2020).

Test: Complex formation of labeled antibodies with labeled Abraxane nanoparticles, flow cytometry
Format: binding
Conditions: fluorescently labeled antibody and nanoparticles
Description: Three therapeutic monoclonal antibodies (bevacizumab, trastuzamab, and rituxan) were fluorescently labeled and incubated with fluorescently labeled Abraxane® nanoparticles. The particles were spun down, washed, and visualized by flow cytometry.

Substance: trastuzamab: Therapeutic monoclonal antibody (non-VEGF targeting)
- complex formation with Abraxane nanoparticles: spontaneously formed complexes
